We go through 14 molecules from patent US20240000957A1 (published 2024).

The chains behind the UniProt entries cited, without tags or fusion partners. Residues count along the entry.
UniProt P29317, 24-537: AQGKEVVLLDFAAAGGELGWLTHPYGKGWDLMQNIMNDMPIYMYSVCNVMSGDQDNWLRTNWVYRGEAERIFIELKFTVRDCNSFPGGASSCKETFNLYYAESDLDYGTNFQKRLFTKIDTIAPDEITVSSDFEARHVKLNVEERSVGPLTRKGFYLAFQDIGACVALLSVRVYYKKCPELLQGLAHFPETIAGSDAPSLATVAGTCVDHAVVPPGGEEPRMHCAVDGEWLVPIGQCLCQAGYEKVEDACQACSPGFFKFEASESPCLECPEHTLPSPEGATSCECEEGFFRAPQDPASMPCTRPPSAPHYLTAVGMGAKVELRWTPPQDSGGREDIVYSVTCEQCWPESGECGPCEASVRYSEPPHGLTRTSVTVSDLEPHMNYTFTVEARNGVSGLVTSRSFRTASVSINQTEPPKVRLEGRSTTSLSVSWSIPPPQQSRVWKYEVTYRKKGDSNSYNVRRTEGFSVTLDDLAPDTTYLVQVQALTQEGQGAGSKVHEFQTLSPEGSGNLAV
UniProt Q03145, 26-538: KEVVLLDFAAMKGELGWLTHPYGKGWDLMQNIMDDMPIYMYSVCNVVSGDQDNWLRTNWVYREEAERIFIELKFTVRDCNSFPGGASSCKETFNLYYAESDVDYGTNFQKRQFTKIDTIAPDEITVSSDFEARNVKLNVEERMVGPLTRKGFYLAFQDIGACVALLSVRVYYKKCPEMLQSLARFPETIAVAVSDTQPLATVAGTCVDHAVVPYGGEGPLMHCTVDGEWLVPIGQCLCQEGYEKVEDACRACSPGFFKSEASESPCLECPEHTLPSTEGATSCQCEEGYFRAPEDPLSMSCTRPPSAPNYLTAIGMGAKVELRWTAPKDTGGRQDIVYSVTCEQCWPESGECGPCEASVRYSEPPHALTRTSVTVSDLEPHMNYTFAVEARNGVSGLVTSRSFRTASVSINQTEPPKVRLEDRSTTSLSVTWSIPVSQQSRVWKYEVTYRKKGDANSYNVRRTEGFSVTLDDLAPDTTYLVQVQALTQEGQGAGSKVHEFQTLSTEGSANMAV

The term Ki denotes the equilibrium dissociation constant of an inhibitor or competing ligand from its target. A higher Ki goes with weaker binding. What is called Kd is the constant that tells how readily two partners part at equilibrium. A higher Kd goes with lower affinity.

B1: Compound 37 (peptide)
peptide: ACRVYGPYCAYPDTICA
modifications: TATA scaffold on the 3 Cys
B2: Compound 24 (peptide)
peptide: GQVCIVDARCAYMNVCA
modifications: TATA scaffold on the 3 Cys
B3: Compound 48 (peptide)
peptide: ACGFMGLEPCELYCA
modifications: TATA scaffold on the 3 Cys
B4: Compound 30 (peptide)
peptide: ACQPSNHCAFMNYCA
modifications: TATA scaffold on the 3 Cys
B5: Compound 73 (peptide)
peptide: ACPLVNPLCLHPGWTCLHG
modifications: TATA scaffold on the 3 Cys
B6: Compound 72 (peptide)
peptide: KHSCPLVNPLCLHPGWTCA
modifications: TATA scaffold on the 3 Cys
B7: Compound 95 (peptide)
peptide: ACPMVNPLCLHPGWKCA
modifications: TATA scaffold on the 3 Cys
B8: Compound 96 (peptide)
peptide: ACPMVNPLCLTPGWICA
modifications: TATA scaffold on the 3 Cys
B9: Compound 75 (peptide)
peptide: ACPLVNPLCLHPGWTCLHG
modifications: N-terminal (β-Ala)-Sar10; TATA scaffold on the 3 Cys
B10: BCY6026 (peptide)
peptide: ACPLVNPLCLHPGWSCRGQ
modifications: three Cys residues cyclised on the TATA scaffold (1,1',1''-(1,3,5-triazinane-1,3,5-triyl)triprop-2-en-1-one)
notes: Bicyclic peptide on a TATA scaffold, no toxin; Made on Rink amide resin; also called Compound 87; Bicycle Compound Number 87
B11: BCY6059 (peptide)
peptide: CPLVNPLCLHPGWTCLHG
modifications: BCY6019 (N-terminal Ac; C-terminal -Sar6-(D-K); TATA scaffold on the 3 Cys) acetylated with acetyl acetate
notes: made from BCY6019
B12: BCY6019 (peptide)
peptide: CPLVNPLCLHPGWTCLHG
modifications: N-terminal Ac; C-terminal -Sar6-(D-K); TATA scaffold on the 3 Cys
notes: also called Compound 77
B13: BCY6026 (peptide)
peptide: ACPLVNPLCLHPGWSCRGQ
modifications: TATA scaffold on the 3 Cys
notes: also called Compound 87
B14: BCY6042 (peptide)
peptide: CPLVNPLCLHPGWSCRGQ
modifications: N-terminal Ac; C-terminal -Sar6-(D-K); TATA scaffold on the 3 Cys
notes: also called Compound 91

The target of the first assay is T1, Human EphA2 (Ecto), C-terminal polyHis (Human, UniProt P29317 24-537).
T1 construct: extracellular domain; R&D systems 3035-A2 or in-house
Nature of the assay: FP competition vs Reference Compound C.
Regarding B1, affinity was put at a Ki of 294 nM. This counts as sub-micromolar.
In turn, B2 returned a Ki of 168 nM.
Same read-out and setting: in the case of B3 it was 128 nM.
The same measure, in the same setting: in the case of B4 it was 293 nM; in that of B5, 1.98 nM.
Same read-out and setting: in the case of B6 it was 11.9 nM; in that of B7, 11.9 nM; in that of B8, 16.1 nM.

The target in the next assay is T2, Mouse EphA2 (Ecto) (Mouse, UniProt Q03145 26-538).
T2 construct: extracellular domain; Fluorescence polarisation assays; not shown: Fc fusion (R&D Systems 639-A2) or C-terminal polyHis (Sino Biological 50586-M08H)
Kind of assay: FP competition vs Reference Compound C.
B5 came in with a Ki of 72.7 nM. This counts as double-digit nanomolar.
On the same count and under the same terms, as for B9, the figure is 18 nM.

A further assay addresses T3, Human EphA2 (Human, UniProt P29317 24-537, limits assumed, biotinylated, 0.95 mol biotin/monomer).
T3 construct: also called Eph receptor tyrosine kinase A2
Kind of assay: SPR, biotinylated EphA2 on streptavidin chip. On the technique in general: Surface plasmon resonance follows binding to a sensor surface in real time, without labels.
With B10, the equilibrium dissociation constant (Kd) turned out to be 1.02 nM. That is a single-digit nanomolar value.

In another assay the target is T1, Human EphA2 (Ecto), C-terminal polyHis. Nature of the assay: FP competition vs Reference Compound C (Study 2).
With B11, the inhibitory constant (Ki) is 43.2 nM. This lies in the double-digit nanomolar range.
On the same count and under the same terms, in the case of B12 it was 6.4 nM.
On to B13, for which the affinity, expressed as Ki, was 4.4 nM.
The same measure, in the same setting: in the case of B14 it was 6.7 nM.

Another assay concerns the target T2, Mouse EphA2 (Ecto). Nature of the assay: FP competition vs Reference Compound C (Study 2).
Molecule B12 showed a Ki of 16 nM. This lies in the double-digit nanomolar range.
